Results as given in patent US20250011445A1 (priority 2020, published 2025).

Test system: NIH3T3 cells
Experiment: Death ligand-induced cell death in NIH3T3 cells, Sytox green, Incucyte
Type: cell-based, mouse
Details: IFN pretreatment 24 hr; 1 μg/ml Death Ligand; in presence of zVAD-fmk

B1: IFN-beta: type I IFN (protein, UniProt P01574 22-187, looked up)
Interferon beta: MSYNLLGFLQRSSNFQCQKLLWQLNGRLEYCLKDRMNFDIPEEIKQLQQFQKEDAALTIYEMLQNIFAIFRQDSSSTGWNETIVENLLANVYHQINHLKTVLEEKLEKEDFTRGKLMSSLHLKRYYGRILHYLKAKEYSHCAWTIVRVEILRNFYFINRLTGYLRN
  sensitisation to death induction by TRAIL or FasL: significantly sensitised them to death induction by TRAIL or FasL
